For two molecules, activation results are on record in PubChem BioAssay AID1117267 (The Scripps Research Institute Molecular Screening Center, 2014).

The list shows a part of the results, in another mix than the full data. Active and inactive are the calls of the source.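 How the source made its calls: active means activation above the mean of all tested compounds plus 3 SD (cut at about 9.5% in these data); inactive means the rest.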

This assay can be described thus: compounds raising TTR promoter-driven luciferase – cell-based, luminescence, SH-SY5Y, TTR promoter Gaussia luciferase, primary screen (AID 1117267).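 Further: cells exposed to compounds for one day before reading; 0% = median of all test compound wells on the plate.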 The conditions noted are these: at 16.7 µM, hits give high values, 100% = recombinant luciferase protein wells.
As to `CCC(=O)N(c1ccccc1)C1(COC)CCN(CCc2cccs2)CC1`, the activation is inactive: 0.6%.

For `CCC(=O)N(c1ccccc1)C1(COC)CCN(CCn2nnn(CC)c2=O)CC1`, the activation was inactive: 2.37%.
